# Literature values as cited in US8506947B2 (priority 1999, dated 2013).
# System: Breast cancer cells retrovirally transfected with VZV-TK
# Conditions: cited from earlier work
structure (smiles),measurement,value
"Nc1nc(O)c2ncn(COC(CO)CO)c2n1 [GCV, Gancyclovir]",sensitivity of transduced cell lines,minimally increased sensitivity
